From patent publication US9242957B2, “Thiophene-2-carboximidamide based selective neuronal nitric oxide inhibitors” (Northwestern University, priority 2012, dated 2016)
pKi: −log10 of the molar value.

Key:
murine iNOS = murine iNOS (Mus musculus (Mouse), UniProt P29477); assay: NOS inhibition assay, iNOS; type: biochemical; conditions: Table 2; for pKi: murine iNOS, Km […], Ki = IC50/(1 + [S]/KM)
bovine eNOS = bovine eNOS (Bos taurus (Bovine), UniProt P29473); assay: NOS inhibition assay, eNOS; type: biochemical; conditions: Table 2; for pKi: bovine eNOS, Km […], Ki = IC50/(1 + [S]/KM)

Row | pKi (murine iNOS) | pKi (bovine eNOS) | Selectivity n/i (murine iNOS; ratio of Ki (iNOS) to Ki (nNOS)) | Selectivity n/e (bovine eNOS; ratio of Ki (eNOS) to Ki (nNOS)) | SMILES
1 | 5.95 | 5.61 | – | – | N=C(Nc1cccc(COC[C@@H]2C[C@@H](OCc3cccc(NC(=N)c4cccs4)c3)CN2)c1)c1cccs1 [QJ-II-194]
2 | 5.70 | 5.44 | – | – | N=C(Nc1cccc(COC[C@H]2C[C@@H](OCc3cccc(NC(=N)c4cccs4)c3)CN2)c1)c1cccs1 [QJ-II-187]
3 | – | – | 86 | 119 | N=C(Nc1cccc(OC[C@@H]2C[C@@H](Oc3cccc(NC(=N)c4cccs4)c3)CN2)c1)c1cccs1 [QJ-III-08]
4 | 5.68 | 5.84 | – | – | N=C(Nc1cccc(COC[C@@H]2C[C@H](OCc3cccc(NC(=N)c4cccs4)c3)CN2)c1)c1cccs1 [QJ-II-195]
